Measurements: US20110070314A1 (priority 2009, published 2011)

Experiments:
u87MG (brain cancer) = experiment: Cell survivability, Hoechst 33342 / propidium iodide staining, 24 h treatment; assay type: cell-based, human; conditions: brain tumor cells (u98MG as printed)
[1] = tested on: MDA-MB-231 (breast cancer); experiment: as above; assay type: cell-based, human; conditions: breast cancer cells (MDA-MB-231)
[2] = tested on: U-87MG orthotopic glioblastoma; conditions: model I, 1.25, 2.5 and 5 mg/kg P.O.

Substance: sodium meta arsenite
- LD50 (u87MG (brain cancer)): 0.03 µM
- LD50 [1]: 0.03 to 0.05 µM
- Side effects in terms of liver enzyme levels, body weight and lethality [2]: None of the treatments caused any side effects
